## Apparent affinities of Ab-14 variants for a coronavirus HR2 peptide

Values reported by Li et al. 2023, doi:10.1038/s41467-023-39022-2 (FLAb copy).

Target: peptide PDVDLGDISGINAS, taken from heptad repeat 2 (HR2) of SARS-CoV-2 spike.

Each scFv is VH, the linker GGGGSGGGGSGGGGS, VL, as in the parent Ab-14, and differs from it in the CDRs of the light chain only.
VH: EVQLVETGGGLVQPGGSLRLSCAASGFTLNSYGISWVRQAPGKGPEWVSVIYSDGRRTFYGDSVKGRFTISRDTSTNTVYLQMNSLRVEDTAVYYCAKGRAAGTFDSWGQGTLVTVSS
VL: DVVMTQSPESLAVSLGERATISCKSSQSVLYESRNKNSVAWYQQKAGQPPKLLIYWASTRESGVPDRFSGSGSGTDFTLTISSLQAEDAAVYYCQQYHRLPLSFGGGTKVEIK

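The parent was found by panning a naive human phage display library on the peptide. These sequences belong to a second round, designed from the earlier measurements on random variants of the parent. Their group label is 14L_GP_Gibbs (GP: Gaussian process model; Gibbs: Gibbs sampling; a sequence that several methods proposed may carry one label only). In AlphaSeq, yeast of one mating type display the scFv and yeast of the other type display the target. Pairs that bind mate more often; barcode pairs of the diploids are counted by sequencing. Each replicate has its own calibration line, from reference interactions of the BCL2 family. Mating was done six times.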

Variants are written as CDR1, CDR2 and CDR3 of the light chain (limits as in the source). Parent: KSSQSVLYESRNKNSVA, WASTRES, QQYHRLPLS. Numbers give log10(Kd / nM), so 0 is 1 nM and 3 is 1 µM. Smaller is tighter. A mean of the replicates is given; it leaves out those without a signal.

| # | CDR-L1 | CDR-L2 | CDR-L3 | log10 Kd, replicates | log10 Kd (nM), mean | empty controls |
|---|---|---|---|---|---|---|
| 1 | KLMGSMLYEQRMKNSVA | QASHRMS | QQYHRLPLS | 1.59 / 1.02 / 1.35 / 1.16 / 0.85 / 1.03 | 1.17 | 0/18 |
| 2 | KIQQSVYYESLNQNSVA | NASTRLQ | QQYHRLPLS | 0.56 / 0.53 / 0.58 / 0.27 / 0.65 / 0.49 | 0.51 | 0/18 |
| 3 | KSSQLELYEDRMKNSVA | NASYRLS | QQYHRLPLS | 0.71 / 1.18 / 0.46 / 1.04 / 0.83 / 0.44 | 0.78 | 1/18 (2.43) |
| 4 | KLSYSVMLESRNKNAVA | SASTRMS | QDYHRLPLS | 0.16 / 0.37 / 0.14 / 0.24 / 0.27 / 0.26 | 0.24 | 1/18 (2.16) |
| 5 | KSMQSVQGEDRNKNSVA | EASTRCS | QQYHRLPLS | 0.33 / 0.57 / 0.35 / 0.42 / 0.39 / 0.44 | 0.42 | 1/18 (2.27) |
| 6 | KMQQSELMESRNVNSVA | HASLRLE | QQYHRLPLS | 0.49 / 0.18 / 0.25 / 0.08 / 0.50 / 0.58 | 0.35 | 0/18 |
| 7 | KVDQDDLYENRNCNSVA | QASTRES | QQYHRLPLS | 0.24 / 0.33 / 0.35 / 0.09 / 0.11 / 0.59 | 0.28 | 1/18 (2.94) |
| 8 | KFSQQVLYESRVMNSVA | NASQRLS | QQYHRLPLS | 0.14 / 0.21 / 0.03 / -0.02 / 0.20 / 0.40 | 0.16 | 1/18 (1.98) |
| 9 | KLETSVLGESRNKNAVA | SASQREQ | QQYHRLPLS | -0.27 / -0.61 / -0.77 / -0.78 / -0.62 / -0.41 | -0.58 | 2/18 (2.10) |
| 10 | KYSQSQLYEDRMVNSVA | NASQRMS | QQYHRLPLS | 0.51 / 0.37 / 0.53 / 0.15 / 0.38 / 0.56 | 0.42 | 3/18 (2.69) |
| 11 | KISQSACMESRNKNSVA | NASKRES | QQYHRLPLS | 0.98 / 0.73 / 0.59 / 1.11 / 0.73 / 0.72 | 0.81 | 0/18 |
| 12 | KLMQSQEYESRNKNSVA | EASTREL | QQYHRLPLS | 0.06 / -0.05 / -0.06 / -0.12 / -0.01 / 0.09 | -0.01 | 2/18 (3.20) |
| 13 | KCYQSQDYESRNKNAVA | NASQRED | QQYHRLPLS | 0.26 / 0.45 / 0.26 / 0.01 / 0.19 / 0.48 | 0.27 | 0/18 |
| 14 | FLMQSWDYESRNKNSVA | NASKRMS | QQYHRLPLS | 0.66 / 0.43 / 0.23 / 0.37 / 0.34 / 0.65 | 0.45 | 0/18 |
| 15 | YLSQSVLYESRNKNSVA | NASTRES | QQYHRLPLI | 0.25 / 0.11 / 0.20 / -0.03 / 0.06 / 0.15 | 0.12 | 3/18 (2.32) |
| 16 | KLSQEMEYESRNKNSVA | QASERES | QQYHRLPLS | 0.13 / 0.23 / -0.18 / -0.26 / -0.03 / 0.13 | 0.00 | 0/18 |
| 17 | AFSQSVLYESRNQNSVA | EASTRCD | QQYHRLPLS | 0.10 / 0.02 / -0.13 / -0.20 / -0.29 / -0.11 | -0.10 | 0/18 |
| 18 | KFVQSWLYESRNKNNVA | HASTRCS | QQYHRLPLS | 0.01 / 0.15 / -0.02 / 0.11 / -0.15 / -0.26 | -0.03 | 0/18 |
| 19 | KLSYSVMLESRNKNAVA | NASTRMS | QDYHRLPLS | -0.15 / -0.07 / -0.29 / -0.26 / -0.25 / -0.16 | -0.20 | 2/18 (3.66) |
| 20 | KMSQSQEYESRNSNAVA | NASQRLT | QQYHRLPLS | 0.39 / 0.17 / 0.25 / 0.16 / 0.09 / 0.24 | 0.22 | 0/18 |
| 21 | KISQSVEYESRDKNSVA | DANTRLS | QQYHRLPLS | 0.37 / 0.26 / 0.05 / 0.04 / 0.18 / 0.14 | 0.17 | 1/18 (2.39) |
| 22 | KLQYSVLYGSRNKNSVA | NASTRLQ | QQYHRLPLS | 0.63 / 0.71 / 0.72 / 0.75 / 0.69 / 0.83 | 0.72 | 0/18 |
| 23 | KFSQAWMYEQRNKNSVA | QASQRES | QQYHRLPLS | 0.02 / -0.63 / -0.56 / -0.56 / -0.58 / -0.16 | -0.41 | 0/18 |
| 24 | KLVESELYESRNSNSVA | NASYREE | QQYHRLPLS | 0.04 / 0.01 / -0.04 / 0.09 / -0.03 / 0.01 | 0.01 | 1/18 (1.67) |
| 25 | KFFQSQLYEQRNQNSVA | SASYRMS | QQYHRLPLS | 0.50 / 0.45 / 0.25 / 0.18 / 0.26 / 0.24 | 0.31 | 1/18 (3.62) |
| 26 | KLSQQNLYESRNKNSVA | NASQRLS | QCYHRLPLS | 1.59 / 1.17 / 0.79 / 1.67 / 1.11 / 0.81 | 1.19 | 1/18 (1.73) |
| 27 | KLQQSEEYESRQFNSVA | SASQRNL | QQYHRLPLS | 0.51 / 0.39 / 0.43 / 0.59 / 0.51 / 0.73 | 0.53 | 0/18 |
| 28 | KLQQSVLMGSRNKNSVA | EASTRMV | QAYHRLPLS | 0.39 / 0.30 / 0.36 / 0.32 / 0.41 / 0.72 | 0.42 | 2/18 (2.85) |
| 29 | KLDMWQLGGSRNKNSVA | SASTRCS | QQYHRLPLS | 0.67 / 0.54 / 0.62 / 0.36 / 0.94 / 0.81 | 0.66 | 1/18 (3.54) |
| 30 | KISQSELYESRNKNSIA | NANQREQ | QQYHRLPLS | 0.12 / 0.06 / 0.13 / 0.13 / 0.10 / 0.18 | 0.12 | 0/18 |
| 31 | KVSQSQLYESRMKQSVA | NASQRES | QQYHRLPLS | 0.56 / 0.37 / 0.21 / 0.02 / 0.14 / 0.24 | 0.26 | 1/18 (2.25) |
| 32 | KIPQSYLGEWRNFNSVA | NASQRES | QQYHRLPLS | -0.03 / -0.18 / -0.25 / -0.32 / -0.34 / -0.48 | -0.27 | 2/18 (2.75) |
| 33 | KFVQSWGYESRNKNAVA | HASTRCD | QQYHRLPLS | 0.59 / 0.33 / 0.21 / 0.31 / 0.18 / 0.48 | 0.35 | 2/18 (3.05) |
| 34 | KLQGSVLYESRNKNAVA | GASQREK | QQYHRLPLS | 0.00 / -0.09 / 0.09 / -0.29 / -0.12 / 0.07 | -0.06 | 1/18 (3.39) |
| 35 | KIIQEGNYESRNKNSVA | SASTRCP | QQYHRLPLS | 0.57 / 0.26 / 0.22 / 0.19 / 0.37 / 0.44 | 0.34 | 3/18 (2.89) |
| 36 | KFSQQMLYESRNKNNVA | HASHRES | QQYHRLPLS | 0.13 / 0.07 / 0.16 / 0.11 / 0.31 / 0.22 | 0.17 | 2/18 (2.35) |
| 37 | KLSPSVMYESRMKNSVA | MASTRYS | QQYHRLPLS | 1.05 / 0.64 / 1.49 / 0.61 / 0.52 / 1.80 | 1.02 | 1/18 (1.70) |
| 38 | KFSQKVLYESRAMNSVA | DASQRLS | QQYHRLPLS | 0.57 / 0.93 / 0.94 / 1.21 / 0.89 / 1.11 | 0.94 | 1/18 (4.49) |
| 39 | KLRTSVEYESRNKNSVA | SASTRES | QQYHRLPLS | 0.27 / -0.27 / -0.14 / -0.23 / -0.04 / -0.13 | -0.09 | 0/18 |
| 40 | KWDQSVDGQSRNKNSVA | QASQREW | QQYHRLPLS | 0.80 / 0.88 / 0.51 / 0.51 / 0.36 / 0.50 | 0.59 | 3/18 (2.45) |
| 41 | KISQSVGYEDRNKNSVA | NAQQRMQ | QQYHRLPLS | 0.18 / 0.20 / 0.30 / -0.19 / 0.11 / -0.12 | 0.08 | 0/18 |
| 42 | KYEYSELELSRNKNSVA | NASTREE | QQYHRLPLS | 0.28 / 0.43 / 0.35 / 0.22 / 0.43 / 0.42 | 0.36 | 1/18 (4.38) |
| 43 | KLSQWQWGESRNKNSVA | SASTRCS | QQYHRLPLS | 0.15 / 0.37 / 0.20 / 0.06 / 0.21 / 0.24 | 0.20 | 1/18 (4.19) |
| 44 | KLSQSQLYESRNKNSVA | NGSTVES | QDYHRLPLS | 0.04 / 0.49 / -0.08 / -0.27 / -0.11 / 0.36 | 0.07 | 1/18 (2.40) |

The opening 5 entries, copied out:

CDR-L1,CDR-L2,CDR-L3,"log10 Kd, replicates","log10 Kd (nM), mean",empty controls
KLMGSMLYEQRMKNSVA,QASHRMS,QQYHRLPLS,1.59 / 1.02 / 1.35 / 1.16 / 0.85 / 1.03,1.17,0/18
KIQQSVYYESLNQNSVA,NASTRLQ,QQYHRLPLS,0.56 / 0.53 / 0.58 / 0.27 / 0.65 / 0.49,0.51,0/18
KSSQLELYEDRMKNSVA,NASYRLS,QQYHRLPLS,0.71 / 1.18 / 0.46 / 1.04 / 0.83 / 0.44,0.78,1/18 (2.43)
KLSYSVMLESRNKNAVA,SASTRMS,QDYHRLPLS,0.16 / 0.37 / 0.14 / 0.24 / 0.27 / 0.26,0.24,1/18 (2.16)
KSMQSVQGEDRNKNSVA,EASTRCS,QQYHRLPLS,0.33 / 0.57 / 0.35 / 0.42 / 0.39 / 0.44,0.42,1/18 (2.27)

The authors' rule: three or more of the six replicates give a measured affinity, fewer mean a poor binder. Of ten entries with the parent sequence, four were seen in most replicates (averages 0.34 to 2.37), three in one and three in none, so single entries are noisy. The range of this assay differs from that of the first round, and the authors advise against merging the two. Background: pairings of all light chain designs with three empty control strains gave a value in 4% of cases (median 2.64, 5th percentile 1.59). Values in that range, when seen in few replicates, are hard to tell from nonspecific mating. For each scFv, signals with the empty controls are counted beside the result, with their mean in brackets.